Test results as given in BindingDB's records for doi:10.1016/j.ejmech.2015.10.016 (University of Groningen, 2015).

Target: T1, Histone acetyltransferase KAT8 (Homo sapiens, UniProt Q9H7Z6)
T1 sequence (Q9H7Z6 whole entry): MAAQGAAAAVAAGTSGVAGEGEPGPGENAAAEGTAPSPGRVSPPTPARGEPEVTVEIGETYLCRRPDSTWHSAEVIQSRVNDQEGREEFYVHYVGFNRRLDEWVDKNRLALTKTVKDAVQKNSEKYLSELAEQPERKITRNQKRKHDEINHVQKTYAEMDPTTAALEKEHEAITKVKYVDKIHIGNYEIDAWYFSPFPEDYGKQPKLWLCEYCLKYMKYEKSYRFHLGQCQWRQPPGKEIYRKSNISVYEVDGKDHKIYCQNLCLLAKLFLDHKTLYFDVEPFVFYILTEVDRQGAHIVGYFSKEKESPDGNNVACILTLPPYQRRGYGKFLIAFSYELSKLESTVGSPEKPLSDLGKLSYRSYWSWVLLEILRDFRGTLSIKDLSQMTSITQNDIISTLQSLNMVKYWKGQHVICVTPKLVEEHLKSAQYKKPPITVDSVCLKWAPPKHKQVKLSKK
Experiment: Inhibition of recombinant N-terminal His6-tagged KAT8 (unknown origin) expressed in Escherichia Coli BL21 DE3 cells assessed as reduction of Co A level using histone H4 substrate after 15 mins by CPM fluorescence assay

CCCCCCCCCCCCCCCc1cccc(O)c1C(=O)O [2-Hydroxy-6-pentadecyl-benzoic acid]
IC50: 214 µM
